We go through five compounds from patent publication US9340590B2 (priority 2011, dated 2016).

Protein sequences, listed by entry. Tags and fused reporters are not part of them.
UniProt Q15858, whole entry, looked up: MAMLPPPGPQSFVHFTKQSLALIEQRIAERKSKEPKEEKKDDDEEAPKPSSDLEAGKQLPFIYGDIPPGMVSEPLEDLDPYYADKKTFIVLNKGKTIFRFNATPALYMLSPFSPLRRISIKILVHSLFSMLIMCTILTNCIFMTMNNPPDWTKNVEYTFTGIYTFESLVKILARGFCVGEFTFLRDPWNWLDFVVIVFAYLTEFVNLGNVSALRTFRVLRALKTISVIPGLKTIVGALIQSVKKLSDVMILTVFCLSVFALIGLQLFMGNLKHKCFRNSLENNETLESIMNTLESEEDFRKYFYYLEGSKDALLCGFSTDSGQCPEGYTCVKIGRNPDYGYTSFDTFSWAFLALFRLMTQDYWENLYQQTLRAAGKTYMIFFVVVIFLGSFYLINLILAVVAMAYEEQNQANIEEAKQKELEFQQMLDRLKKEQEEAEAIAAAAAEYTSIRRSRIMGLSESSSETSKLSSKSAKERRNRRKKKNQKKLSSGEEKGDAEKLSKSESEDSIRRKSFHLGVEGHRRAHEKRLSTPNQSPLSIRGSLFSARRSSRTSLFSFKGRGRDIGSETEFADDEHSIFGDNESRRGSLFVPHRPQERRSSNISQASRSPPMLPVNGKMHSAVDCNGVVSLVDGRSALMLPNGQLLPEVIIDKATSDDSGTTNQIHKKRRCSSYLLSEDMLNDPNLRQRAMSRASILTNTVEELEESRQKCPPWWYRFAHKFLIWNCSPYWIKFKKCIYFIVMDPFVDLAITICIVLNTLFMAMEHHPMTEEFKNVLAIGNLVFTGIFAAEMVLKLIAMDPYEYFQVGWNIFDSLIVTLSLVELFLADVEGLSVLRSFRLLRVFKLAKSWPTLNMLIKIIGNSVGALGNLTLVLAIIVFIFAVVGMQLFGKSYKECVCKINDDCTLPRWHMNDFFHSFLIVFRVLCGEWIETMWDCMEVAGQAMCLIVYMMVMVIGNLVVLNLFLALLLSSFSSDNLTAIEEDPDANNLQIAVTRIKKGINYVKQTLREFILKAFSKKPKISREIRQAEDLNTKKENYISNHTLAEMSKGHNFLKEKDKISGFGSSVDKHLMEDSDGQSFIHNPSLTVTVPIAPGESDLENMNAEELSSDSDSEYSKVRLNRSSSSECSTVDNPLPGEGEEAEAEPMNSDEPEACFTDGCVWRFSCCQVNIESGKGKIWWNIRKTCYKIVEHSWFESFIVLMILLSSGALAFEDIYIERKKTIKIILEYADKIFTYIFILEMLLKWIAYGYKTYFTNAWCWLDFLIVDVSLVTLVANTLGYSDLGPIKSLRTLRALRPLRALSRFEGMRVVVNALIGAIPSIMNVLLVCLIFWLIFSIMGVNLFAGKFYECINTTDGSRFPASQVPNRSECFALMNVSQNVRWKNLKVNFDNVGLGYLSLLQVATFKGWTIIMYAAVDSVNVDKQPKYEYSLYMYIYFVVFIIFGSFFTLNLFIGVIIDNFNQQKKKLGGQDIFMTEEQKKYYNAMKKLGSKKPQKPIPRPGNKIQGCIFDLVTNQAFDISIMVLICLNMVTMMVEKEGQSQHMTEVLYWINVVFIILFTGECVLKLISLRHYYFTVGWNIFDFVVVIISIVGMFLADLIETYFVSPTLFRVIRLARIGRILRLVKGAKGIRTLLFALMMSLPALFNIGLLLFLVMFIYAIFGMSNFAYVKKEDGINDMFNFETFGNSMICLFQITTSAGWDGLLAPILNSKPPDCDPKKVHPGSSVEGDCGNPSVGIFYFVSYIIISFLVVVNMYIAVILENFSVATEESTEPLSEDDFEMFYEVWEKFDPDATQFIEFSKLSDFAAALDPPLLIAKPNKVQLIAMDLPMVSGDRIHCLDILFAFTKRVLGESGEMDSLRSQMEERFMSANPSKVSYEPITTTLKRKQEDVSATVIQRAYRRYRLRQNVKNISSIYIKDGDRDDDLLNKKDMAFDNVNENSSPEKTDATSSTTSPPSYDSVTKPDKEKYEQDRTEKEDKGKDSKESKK
UniProt Q9NY46, whole entry, looked up: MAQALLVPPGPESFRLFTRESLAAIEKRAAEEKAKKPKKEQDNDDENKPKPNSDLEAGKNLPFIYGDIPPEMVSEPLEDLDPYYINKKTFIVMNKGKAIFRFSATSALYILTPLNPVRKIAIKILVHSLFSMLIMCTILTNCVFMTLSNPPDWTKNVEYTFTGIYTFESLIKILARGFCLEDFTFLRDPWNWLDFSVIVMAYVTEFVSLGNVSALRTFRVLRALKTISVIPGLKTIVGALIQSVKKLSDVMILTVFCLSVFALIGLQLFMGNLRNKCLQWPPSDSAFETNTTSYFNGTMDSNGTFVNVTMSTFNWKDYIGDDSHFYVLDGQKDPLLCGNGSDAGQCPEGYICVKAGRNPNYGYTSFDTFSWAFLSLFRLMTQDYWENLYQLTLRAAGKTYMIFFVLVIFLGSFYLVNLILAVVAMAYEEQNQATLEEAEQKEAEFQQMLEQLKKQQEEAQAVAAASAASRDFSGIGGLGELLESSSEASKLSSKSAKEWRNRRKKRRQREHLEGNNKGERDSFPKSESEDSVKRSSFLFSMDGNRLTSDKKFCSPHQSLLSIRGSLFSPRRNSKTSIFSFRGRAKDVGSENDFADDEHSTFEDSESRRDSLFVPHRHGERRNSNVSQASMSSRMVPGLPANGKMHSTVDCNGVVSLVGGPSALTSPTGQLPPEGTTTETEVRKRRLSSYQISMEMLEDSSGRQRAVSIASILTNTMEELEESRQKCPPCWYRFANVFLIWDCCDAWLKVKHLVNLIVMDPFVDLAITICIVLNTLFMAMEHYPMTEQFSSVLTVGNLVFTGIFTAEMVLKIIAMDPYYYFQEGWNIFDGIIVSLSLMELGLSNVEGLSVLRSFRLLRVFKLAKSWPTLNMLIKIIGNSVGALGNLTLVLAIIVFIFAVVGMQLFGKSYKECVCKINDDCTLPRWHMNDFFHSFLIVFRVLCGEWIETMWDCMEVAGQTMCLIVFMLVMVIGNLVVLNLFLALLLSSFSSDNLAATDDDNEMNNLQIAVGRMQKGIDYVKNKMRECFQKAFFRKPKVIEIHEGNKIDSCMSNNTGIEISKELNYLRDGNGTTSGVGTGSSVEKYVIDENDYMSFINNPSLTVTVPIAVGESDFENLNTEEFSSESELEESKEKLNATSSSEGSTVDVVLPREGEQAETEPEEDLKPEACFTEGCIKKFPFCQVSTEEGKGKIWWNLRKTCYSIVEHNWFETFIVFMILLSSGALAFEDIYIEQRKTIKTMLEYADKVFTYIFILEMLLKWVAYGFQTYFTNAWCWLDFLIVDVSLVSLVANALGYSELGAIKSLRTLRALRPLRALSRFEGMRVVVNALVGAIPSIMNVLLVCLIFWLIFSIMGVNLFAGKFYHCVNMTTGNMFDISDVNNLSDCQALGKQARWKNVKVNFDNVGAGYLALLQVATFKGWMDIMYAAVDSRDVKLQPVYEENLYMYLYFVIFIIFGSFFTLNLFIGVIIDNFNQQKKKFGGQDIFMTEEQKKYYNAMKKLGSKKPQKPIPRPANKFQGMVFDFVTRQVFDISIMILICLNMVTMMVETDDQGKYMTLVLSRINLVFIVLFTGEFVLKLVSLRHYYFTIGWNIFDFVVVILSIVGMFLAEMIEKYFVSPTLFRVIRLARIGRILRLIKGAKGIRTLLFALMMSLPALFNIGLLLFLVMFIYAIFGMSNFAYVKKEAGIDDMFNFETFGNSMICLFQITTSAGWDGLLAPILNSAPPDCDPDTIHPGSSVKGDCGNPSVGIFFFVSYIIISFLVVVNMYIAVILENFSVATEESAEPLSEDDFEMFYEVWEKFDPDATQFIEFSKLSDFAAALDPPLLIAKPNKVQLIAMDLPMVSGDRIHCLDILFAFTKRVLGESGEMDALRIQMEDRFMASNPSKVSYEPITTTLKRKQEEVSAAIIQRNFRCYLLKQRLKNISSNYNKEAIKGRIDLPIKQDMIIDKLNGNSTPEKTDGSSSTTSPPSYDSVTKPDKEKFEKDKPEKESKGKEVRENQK
UniProt Q14524, whole entry, looked up: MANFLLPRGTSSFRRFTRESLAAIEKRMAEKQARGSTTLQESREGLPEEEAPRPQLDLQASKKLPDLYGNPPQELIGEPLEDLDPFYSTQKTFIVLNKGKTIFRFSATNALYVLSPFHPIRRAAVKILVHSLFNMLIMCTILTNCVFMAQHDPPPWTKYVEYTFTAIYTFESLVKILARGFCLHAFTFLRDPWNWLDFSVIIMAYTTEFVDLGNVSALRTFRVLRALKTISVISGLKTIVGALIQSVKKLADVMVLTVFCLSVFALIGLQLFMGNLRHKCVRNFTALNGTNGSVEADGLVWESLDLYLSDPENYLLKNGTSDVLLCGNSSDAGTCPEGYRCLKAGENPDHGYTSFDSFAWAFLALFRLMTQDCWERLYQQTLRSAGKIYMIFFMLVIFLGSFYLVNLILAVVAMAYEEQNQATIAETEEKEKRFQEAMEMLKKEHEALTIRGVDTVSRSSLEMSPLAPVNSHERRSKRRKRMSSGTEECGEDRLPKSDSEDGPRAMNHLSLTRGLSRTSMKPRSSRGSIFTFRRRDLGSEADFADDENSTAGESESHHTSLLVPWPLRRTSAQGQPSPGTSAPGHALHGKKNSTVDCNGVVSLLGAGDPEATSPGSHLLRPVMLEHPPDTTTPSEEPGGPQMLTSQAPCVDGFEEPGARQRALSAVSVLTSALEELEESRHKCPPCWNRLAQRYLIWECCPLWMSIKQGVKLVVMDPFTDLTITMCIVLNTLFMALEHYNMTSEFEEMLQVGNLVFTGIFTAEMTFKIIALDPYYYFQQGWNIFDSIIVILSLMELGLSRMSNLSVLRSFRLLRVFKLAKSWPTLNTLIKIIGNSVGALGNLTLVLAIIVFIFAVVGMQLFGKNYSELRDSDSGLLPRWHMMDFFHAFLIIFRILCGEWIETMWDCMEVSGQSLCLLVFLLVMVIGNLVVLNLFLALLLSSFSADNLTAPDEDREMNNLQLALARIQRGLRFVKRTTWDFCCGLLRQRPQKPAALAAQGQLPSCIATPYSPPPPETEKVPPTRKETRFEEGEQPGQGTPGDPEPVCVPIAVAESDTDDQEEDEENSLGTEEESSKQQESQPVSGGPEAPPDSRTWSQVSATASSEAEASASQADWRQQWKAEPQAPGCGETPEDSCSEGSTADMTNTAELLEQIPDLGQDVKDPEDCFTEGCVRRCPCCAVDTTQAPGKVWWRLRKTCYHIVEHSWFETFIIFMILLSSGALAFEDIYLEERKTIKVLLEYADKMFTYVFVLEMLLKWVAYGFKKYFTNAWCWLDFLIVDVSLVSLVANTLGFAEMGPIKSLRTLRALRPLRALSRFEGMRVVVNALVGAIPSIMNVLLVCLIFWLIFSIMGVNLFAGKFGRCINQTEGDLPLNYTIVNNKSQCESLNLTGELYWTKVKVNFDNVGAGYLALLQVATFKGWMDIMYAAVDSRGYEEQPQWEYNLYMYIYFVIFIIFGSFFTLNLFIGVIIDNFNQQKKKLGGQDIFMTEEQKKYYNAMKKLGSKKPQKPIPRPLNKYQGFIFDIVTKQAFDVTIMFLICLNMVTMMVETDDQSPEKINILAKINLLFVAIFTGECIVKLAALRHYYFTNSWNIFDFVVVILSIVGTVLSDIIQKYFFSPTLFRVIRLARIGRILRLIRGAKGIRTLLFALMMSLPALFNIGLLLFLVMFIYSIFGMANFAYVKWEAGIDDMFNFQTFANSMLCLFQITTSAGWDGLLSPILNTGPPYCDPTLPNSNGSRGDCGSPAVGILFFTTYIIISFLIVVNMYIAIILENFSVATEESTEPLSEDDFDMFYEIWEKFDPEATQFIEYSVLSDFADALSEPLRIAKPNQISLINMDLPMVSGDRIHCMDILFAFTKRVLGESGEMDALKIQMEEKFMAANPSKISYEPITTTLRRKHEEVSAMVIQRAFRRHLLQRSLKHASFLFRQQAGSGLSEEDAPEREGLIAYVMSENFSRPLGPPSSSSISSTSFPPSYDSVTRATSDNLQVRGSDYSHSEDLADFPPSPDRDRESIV

For test [1], the target named is T1, hNav1.7 (Homo sapiens, UniProt Q15858). The test is described as follows: cell-based.
Test [2] has as its target T2, hNav1.3 (Homo sapiens, UniProt Q9NY46). The test is described as follows: cell-based.
For the next test, the target named is hNav1.5 (Homo sapiens, UniProt Q14524). Kind of test: cell-based. The note with it: IonWorks Quattro, read-out: IWQ Use Nav1.5. A general note: Patch clamp records ionic current or voltage across a cell membrane.
Test [3] deals with T1, hNav1.7. The test is described as follows: cell-based. It counts as cell-based. The note with it: Nav1.7 Use IC50.
Test [4] addresses T2, hNav1.3. Kind of test: cell-based. The note with it: Nav1.3 Use IC50.
Test [5] addresses T1, hNav1.7. In kind it is cell-based.

Like-named read-outs stand apart in the source and are kept apart here.

Consider `CC[C@H](C)[C@@H]1NC(=O)[C@@H]2CSSC[C@@H]3NC(=O)[C@H](C(C)C)NC(=O)[C@H](CC(C)C)NC(=O)[C@H](CC(N)=O)NC(=O)[C@@H]4CCCN4C(=O)[C@H](CCCNC(=N)N)NC(=O)[C@H](CSSC[C@H](NC(=O)[C@@H](N)CC(=O)O)C(=O)N[C@@H](CC(C)C)C(=O)NCC(=O)N[C@H](C)C(=O)N[C@@H](Cc4ccccc4)C(=O)N[C@@H](CCCNC(=N)N)C(=O)N[C@@H](CCCCN)C(=O)N2)NC(=O)[C@H](CSSC[C@@H](C(=O)N[C@@H](CCCCN)C(=O)N[C@@H](Cc2ccc(O)cc2)C(=O)N[C@H](C(=O)N[C@@H](Cc2ccccc2)C(N)=O)C(C)C)NC(=O)[C@H](Cc2c[nH]c4ccccc24)NC(=O)[C@H](CCCCN)NC(=O)[C@H](Cc2c[nH]cn2)NC(=O)[C@H]([C@@H](C)O)NC(=O)[C@H](CCCNC(=N)N)NC(=O)[C@H](CO)NC3=O)NC(=O)[C@H](CCCCN)NC(=O)[C@H](CC(=O)O)NC(=O)[C@H](CC(N)=O)NC(=O)[C@H](CC(=O)O)NC(=O)[C@@H]2CCCN2C1=O` [compound 602], for which the results for the IC50 against hNav1.7 [1], against hNav1.3 [2] and at hNav1.5 (use-dependent block) were 2.1 µM, 2.7 µM and 13.1 µM, respectively.

With `CC[C@H](C)[C@@H]1NC(=O)[C@@H]2CSSC[C@@H]3NC(=O)[C@H](C(C)C)NC(=O)[C@H](CC(C)C)NC(=O)[C@H](CC(N)=O)NC(=O)[C@@H]4CCCN4C(=O)[C@H](CCCNC(=N)N)NC(=O)[C@H](CSSC[C@H](NC(=O)[C@@H](N)CC(=O)O)C(=O)N[C@@H](CC(C)C)C(=O)NCC(=O)N[C@@H](C)C(=O)N[C@@H](Cc4ccccc4)C(=O)N[C@@H](CCCNC(=N)N)C(=O)N[C@@H](CCCCN)C(=O)N2)NC(=O)[C@H](CSSC[C@@H](C(=O)N[C@@H](CCCCN)C(=O)N[C@@H](Cc2ccc(O)cc2)C(=O)N[C@H](C(=O)N[C@@H](Cc2ccccc2)C(N)=O)C(C)C)NC(=O)[C@H](Cc2c[nH]c4ccccc24)NC(=O)[C@H](CCCCN)NC(=O)[C@H](Cc2cnc[nH]2)NC(=O)[C@H]([C@@H](C)O)NC(=O)[C@H](CCCNC(=N)N)NC(=O)[C@H](CO)NC3=O)NC(=O)[C@H](CCCCN)NC(=O)[C@H](CC(=O)O)NC(=O)[C@H](CC(N)=O)NC(=O)[C@H](CC(=O)O)NC(=O)[C@@H]2CCCN2C1=O` [[Ala5;Phe6]GpTx-1(1-34)], the values for the IC50 against hNav1.7 [3] and against hNav1.3 [4] were 0.012 µM and 0.022 µM, respectively.

Consider “[Phe6,Atz(2 kDa EtO-PEG*-{[Phe6,Atz13*]GpTx-1(1-34)}) 13]GpTx-1(1-34) [Homodimeric Conjugate 1]”, for which the IC50 at hNav1.7 [5] (read-out: IC50 against hNav1.7 channels) was 0.0012 µM; on hNav1.7 [5] (read-out: IC50 against partially inactivated hNav1.7 channels), 0.00066 µM.

For the compound `CC[C@H](C)[C@@H]1NC(=O)[C@@H]2CSSC[C@@H]3NC(=O)[C@H](C(C)C)NC(=O)[C@H](CC(C)C)NC(=O)[C@H](CC(N)=O)NC(=O)[C@@H]4CCCN4C(=O)[C@H](CCCNC(=N)N)NC(=O)[C@H](CSSC[C@H](NC(=O)[C@@H](N)CC(=O)O)C(=O)N[C@@H](CC(C)C)C(=O)NCC(=O)N[C@@H](C)C(=O)N[C@@H](Cc4ccccc4)C(=O)N[C@@H](CCCNC(=N)N)C(=O)N[C@@H](CCCCN)C(=O)N2)NC(=O)[C@H](CSSC[C@@H](C(=O)N[C@@H](CCCCN)C(=O)N[C@@H](Cc2ccc(O)cc2)C(=O)N[C@H](C(=O)N[C@@H](Cc2ccccc2)C(N)=O)C(C)C)NC(=O)[C@H](Cc2c[nH]c4ccccc24)NC(=O)[C@H](CCCCN)NC(=O)[C@H](Cc2cnc[nH]2)NC(=O)[C@H]([C@@H](C)O)NC(=O)[C@H](CCCNC(=N)N)NC(=O)[C@H](CO)NC3=O)NC(=O)[C@H](CCCCN)NC(=O)[C@H](CC(=O)O)NC(=O)[C@H](CC(N)=O)NC(=O)[C@H](CC(=O)O)NC(=O)[C@@H]2CCCN2C1=O` [compound 257], the IC50 is 0.07 µM at hNav1.7 [1] (IonWorks Quattro, use-dependent block, hNav1.7, read-out: IWQ Use Nav1.7); 0.05 µM on hNav1.3 [2] (IonWorks Quattro, use-dependent block, hNav1.3, read-out: IWQ Use Nav1.3); 5 µM at hNav1.5 (use-dependent block).

Take `CC[C@H](C)[C@@H]1NC(=O)[C@@H]2CSSC[C@@H]3NC(=O)[C@H](C(C)C)NC(=O)[C@H](CC(C)C)NC(=O)[C@H](CC(N)=O)NC(=O)[C@@H]4CCCN4C(=O)[C@H](CCCNC(=N)N)NC(=O)[C@H](CSSC[C@H](NC(=O)[C@@H](N)CC(=O)O)C(=O)N[C@@H](CC(C)C)C(=O)NCC(=O)N[C@H](C)C(=O)N[C@@H](CC(C)C)C(=O)N[C@@H](CCCNC(=N)N)C(=O)N[C@@H](CCCCN)C(=O)N2)NC(=O)[C@H](CSSC[C@@H](C(=O)N[C@@H](CCCCN)C(=O)N[C@@H](Cc2ccc(O)cc2)C(=O)N[C@H](C(=O)N[C@@H](Cc2ccccc2)C(N)=O)C(C)C)NC(=O)[C@H](Cc2c[nH]c4ccccc24)NC(=O)[C@H](CCCCN)NC(=O)[C@H](Cc2c[nH]cn2)NC(=O)[C@H]([C@@H](C)O)NC(=O)[C@H](CCCNC(=N)N)NC(=O)[C@H](CO)NC3=O)NC(=O)[C@H](CCCCN)NC(=O)[C@H](CC(=O)O)NC(=O)[C@H](CC(N)=O)NC(=O)[C@H](CC(=O)O)NC(=O)[C@@H]2CCCN2C1=O` [compound 633]: the IC50 at hNav1.7 [1] was found to be 10.7 µM; at hNav1.5 (use-dependent protocol), 7.1 µM.
